Where “and” joins values, the source holds several entries; their conditions need not be identical. Equal entries are not always repeated. Where two headings read alike, the source gives them in different places.
Key:
CB1 receptor [1] = molecular target: T1, CB1 receptor (Rattus norvegicus, UniProt P20272); assay: [3H]CP55,940 displacement binding in rat cerebellar membranes; parameters: species or system Sprague-Dawley rats
CB1 receptor [2] = molecular target: T2, CB1 receptor (Mus musculus, UniProt P47746); assay: Agonist-stimulated [35S]GTPγS binding in mouse cerebellar membranes; format: biochemical, ICR mice; details: for EC50: read-out: Potency (EC50 ± SEM) nM, [35S]GTPγS
[3] = ref Huestis, 2007; Schou et al., 1977; cited from earlier work
CB1 receptor [4] = molecular target: T1, CB1 receptor; assay: Agonist-stimulated [35S]GTPγS binding in rat cerebellar membranes; format: biochemical, Sprague-Dawley rats; details: for Efficacy (Emax ± SEM) % / EC50: cerebellum; for Efficacy (Emax ± SEM) %: percent stimulation over basal [35S]GTPγS binding; for EC50: read-out: Potency (EC50 ± SEM) nM, [35S]GTPγS
CB1 receptor [5] = molecular target: T2, CB1 receptor; assay: [3H]CP55,940 displacement binding in mouse cerebellar membranes; parameters: species or system ICR mice; details: for Ki: read-out: CB1 Binding Affinity (Ki in nM), cerebellum, N = 4 / value

Protein sequences, listed by entry. Tags and fused reporters are not part of them.
UniProt P20272, whole entry: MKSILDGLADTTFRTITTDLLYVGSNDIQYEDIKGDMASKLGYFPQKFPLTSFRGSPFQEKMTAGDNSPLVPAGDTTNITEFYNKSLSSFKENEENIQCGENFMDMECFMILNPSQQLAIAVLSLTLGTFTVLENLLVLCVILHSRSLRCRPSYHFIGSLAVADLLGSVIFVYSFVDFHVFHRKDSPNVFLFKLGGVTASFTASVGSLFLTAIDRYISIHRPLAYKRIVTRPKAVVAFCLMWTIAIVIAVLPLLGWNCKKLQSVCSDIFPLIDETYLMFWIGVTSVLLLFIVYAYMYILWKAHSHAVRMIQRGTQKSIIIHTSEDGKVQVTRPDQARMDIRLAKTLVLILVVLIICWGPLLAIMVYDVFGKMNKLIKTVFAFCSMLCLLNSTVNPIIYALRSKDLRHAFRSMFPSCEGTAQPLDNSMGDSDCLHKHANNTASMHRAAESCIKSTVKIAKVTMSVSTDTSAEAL
UniProt P47746, whole entry: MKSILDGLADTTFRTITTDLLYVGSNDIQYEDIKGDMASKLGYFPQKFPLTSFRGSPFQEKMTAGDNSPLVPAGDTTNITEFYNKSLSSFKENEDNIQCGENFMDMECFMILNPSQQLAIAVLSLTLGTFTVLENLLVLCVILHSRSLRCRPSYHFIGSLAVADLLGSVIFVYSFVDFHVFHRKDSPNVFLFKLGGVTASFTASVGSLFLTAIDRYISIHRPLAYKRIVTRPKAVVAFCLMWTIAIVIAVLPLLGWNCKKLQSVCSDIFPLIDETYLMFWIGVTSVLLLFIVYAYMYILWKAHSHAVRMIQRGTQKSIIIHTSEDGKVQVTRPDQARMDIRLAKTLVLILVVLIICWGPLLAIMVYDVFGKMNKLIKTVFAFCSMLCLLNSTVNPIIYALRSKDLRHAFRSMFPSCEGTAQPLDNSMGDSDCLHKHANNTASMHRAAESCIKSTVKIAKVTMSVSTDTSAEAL

Question: With “11-OH-Δ^9-tetrahydrocannabinol [11-OH-THC]” as the substance, how does the “greater affinity than THC” value (CB1 receptor [1]; rat cerebellum, both sexes) read?
Answer: Its value is ~ 1.5 fold and 1.4–1.6 fold.

Question: What about the Ki (CB1 receptor [1]; read-out: CB1 Binding Affinity (Ki in nM), male rats, cerebellum, N = 4 / value) of the same substance?
Answer: Its Ki is 28 nM.

Question: And the “Efficacy (Emax ± SEM) %” value (CB1 receptor [2]; male mice, cerebellum, percent stimulation over basal [35S]GTPγS binding)?
Answer: Its value is 52 (5.94) %.

Question: And the “functional character in [35S]GTPγS assay” value (CB1 receptor [2]; mouse cerebellum, both sexes)?
Answer: Its value is “partial agonists”.

Question: And the EC50 (CB1 receptor [2]; female mice, cerebellum)?
Answer: Its EC50 is 81.4 nM.

Question: What about the EC50 (CB1 receptor [2]; male mice, cerebellum) of the same substance?
Answer: The EC50 was 85.3 nM.

Question: What about the blood-brain barrier penetration [3] of the same substance?
Answer: The blood-brain barrier penetration was “readily crosses the blood-brain barrier”.

Question: What about the “Efficacy (Emax ± SEM) %” value (CB1 receptor [4]; female rats) of the same substance?
Answer: Its value is 51.4 (5.74) %.

Question: What about the “Efficacy (Emax ± SEM) %” value (CB1 receptor [4]; male rats) of the same substance?
Answer: Its value is 51.7 (5.42) %.

Question: What about the “efficacy compared with THC in [35S]GTPγS assay” value (CB1 receptor [4]; rat cerebellum) of the same substance?
Answer: The value was “slightly greater efficacy than THC”.

Question: What about the “functional character in [35S]GTPγS assay” value (CB1 receptor [4]; rat cerebellum, both sexes) of the same substance?
Answer: The value was “partial agonists”.

Question: And the EC50 (CB1 receptor [4]; female rats)?
Answer: The EC50 was 109 nM.

Question: And the EC50 (CB1 receptor [4]; male rats)?
Answer: The EC50 was 69.8 nM.

Question: What about the “greater affinity than THC” value (CB1 receptor [5]; mouse cerebellum, both sexes) of the same substance?
Answer: The value was ~ 1.5 fold and 1.3–1.5 fold.

Question: And the Ki (CB1 receptor [5]; female mice)?
Answer: Its Ki is 28.5 nM.

Question: What about the Ki (CB1 receptor [5]; male mice) of the same substance?
Answer: Its Ki is 27.3 nM.
